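These data come from cells grown in 96-well plates and exposed to compound for 48 hours at five concentrations. Abbreviation: GI50, concentration required for 50% inhibition of growth. TGI marks complete inhibition of growth.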
What was measured:
Assay in all cases: growth of human tumour cells (NCI), 48 h
SK-OV-3 ovarian = system: SK-OV-3 ovarian
M14 melanoma = system: M14 melanoma
SNB-75 CNS = system: SNB-75 CNS
SK-MEL-5 melanoma = system: SK-MEL-5 melanoma
SF-295 CNS = system: SF-295 CNS
HOP-92 NSCLC = system: HOP-92 NSCLC
SN12C renal = system: SN12C renal
SNB-78 CNS = system: SNB-78 CNS
SK-MEL-28 melanoma = system: SK-MEL-28 melanoma
MOLT-4 leukemia = system: MOLT-4 leukemia
TK-10 renal = system: TK-10 renal
XF 498 CNS = system: XF 498 CNS
MALME-3M melanoma = system: MALME-3M melanoma
NCI-H23 lung = system: NCI-H23 lung
RXF-631 renal = system: RXF-631 renal
786-0 renal = system: 786-0 renal
IGROV1 ovarian = system: IGROV1 ovarian
DLD-1 colon = system: DLD-1 colon
NCI-H522 lung = system: NCI-H522 lung
HOP-62 NSCLC = system: HOP-62 NSCLC
RPMI-8226 leukemia = system: RPMI-8226 leukemia
SW-620 colon = system: SW-620 colon
M19-MEL melanoma = system: M19-MEL melanoma
SF-539 CNS = system: SF-539 CNS
A498 renal = system: A498 renal
HCT-15 colon = system: HCT-15 colon
OVCAR-3 ovarian = system: OVCAR-3 ovarian
KM20L2 colon = system: KM20L2 colon
RXF 393 renal = system: RXF 393 renal
CCRF-CEM leukemia = system: CCRF-CEM leukemia
ACHN renal = system: ACHN renal
NCI-H460 lung = system: NCI-H460 lung
CAKI-1 renal = system: CAKI-1 renal
UACC-257 melanoma = system: UACC-257 melanoma
DMS 273 small cell lung = system: DMS 273 small cell lung
LXFL 529 NSCLC = system: LXFL 529 NSCLC
KM12 colon = system: KM12 colon
UO-31 renal = system: UO-31 renal
EKVX NSCLC = system: EKVX NSCLC
OVCAR-8 ovarian = system: OVCAR-8 ovarian
DMS 114 small cell lung = system: DMS 114 small cell lung
SF-268 CNS = system: SF-268 CNS
NCI-H322M lung = system: NCI-H322M lung
K-562 leukemia = system: K-562 leukemia
UACC-62 melanoma = system: UACC-62 melanoma
SR leukemia = system: SR leukemia
SK-MEL-2 melanoma = system: SK-MEL-2 melanoma
OVCAR-4 ovarian = system: OVCAR-4 ovarian
LOX IMVI melanoma = system: LOX IMVI melanoma
U251 CNS = system: U251 CNS
SNB-19 CNS = system: SNB-19 CNS
NCI-H226 lung = system: NCI-H226 lung
A549 NSCLC = system: A549 NSCLC
COLO 205 colon = system: COLO 205 colon

For O=[N+]([O-])c1ccc(N=Nc2c(O)[nH]c3ccc([N+](=O)[O-])cc23)c([N+](=O)[O-])c1, the GI50 (SK-OV-3 ovarian) was 34 µM, the TGI (SK-OV-3 ovarian) was greater than 100 µM and the GI50 (M14 melanoma) was 23.4 µM. It also gave a TGI (M14 melanoma) of 52.3 µM, a GI50 (SNB-75 CNS) of 44.5 µM and a TGI (SNB-75 CNS) greater than 100 µM. The GI50 (SK-MEL-5 melanoma) was 19.5 µM, the TGI (SK-MEL-5 melanoma) was 40.4 µM and the GI50 (SF-295 CNS) was 17.7 µM. For the same molecule, the TGI (SF-295 CNS) was 35 µM, the GI50 (HOP-92 NSCLC) was 19.3 µM and the TGI (HOP-92 NSCLC) was 36.6 µM. For the same molecule, the GI50 (SN12C renal) was 33 µM, the TGI (SN12C renal) was greater than 100 µM and the GI50 (SNB-78 CNS) was 31.3 µM. For the same molecule, the TGI (SNB-78 CNS) was 97.1 µM, the GI50 (SK-MEL-28 melanoma) was 22.1 µM and the TGI (SK-MEL-28 melanoma) was 63.5 µM. The GI50 (MOLT-4 leukemia) was 31.7 µM, the TGI (MOLT-4 leukemia) was greater than 100 µM and the GI50 (TK-10 renal) was 17.8 µM. The TGI (TK-10 renal) was 33.6 µM, the GI50 (XF 498 CNS) was 18.9 µM and the TGI (XF 498 CNS) was 35.6 µM. The GI50 (MALME-3M melanoma) was 17.8 µM, the TGI (MALME-3M melanoma) was 34.9 µM and the GI50 (NCI-H23 lung) was 26 µM. For the same molecule, the TGI (NCI-H23 lung) was 65.4 µM, the GI50 (RXF-631 renal) was 20.6 µM and the TGI (RXF-631 renal) was 41.7 µM. For the same molecule, the GI50 (786-0 renal) was 17.7 µM, the TGI (786-0 renal) was 32.3 µM and the GI50 (IGROV1 ovarian) was 51.7 µM. It also gave a TGI (IGROV1 ovarian) greater than 100 µM, a GI50 (DLD-1 colon) of 39.2 µM and a TGI (DLD-1 colon) greater than 100 µM. The GI50 (NCI-H522 lung) was 20.3 µM, the TGI (NCI-H522 lung) was 41.2 µM and the GI50 (HOP-62 NSCLC) was 18.2 µM. It also gave a TGI (HOP-62 NSCLC) of 33.8 µM, a GI50 (RPMI-8226 leukemia) of 24.6 µM and a TGI (RPMI-8226 leukemia) of 57 µM. It also gave a GI50 (SW-620 colon) of 21.7 µM, a TGI (SW-620 colon) of 47.4 µM and a GI50 (M19-MEL melanoma) of 28.8 µM. The TGI (M19-MEL melanoma) was 87.5 µM, the GI50 (SF-539 CNS) was 21.8 µM and the TGI (SF-539 CNS) was 49.2 µM. The GI50 (A498 renal) was 14 µM, the TGI (A498 renal) was 36.4 µM and the GI50 (HCT-15 colon) was 23.7 µM. For the same molecule, the TGI (HCT-15 colon) was 57.7 µM, the GI50 (OVCAR-3 ovarian) was 18 µM and the TGI (OVCAR-3 ovarian) was 34.2 µM. It also gave a GI50 (KM20L2 colon) of 24.2 µM, a TGI (KM20L2 colon) of 66 µM and a GI50 (RXF 393 renal) of 19.4 µM. It also gave a TGI (RXF 393 renal) of 38.3 µM, a GI50 (CCRF-CEM leukemia) of 25.5 µM and a TGI (CCRF-CEM leukemia) of 78.9 µM. It also gave a GI50 (ACHN renal) of 28 µM, a TGI (ACHN renal) of 79.1 µM and a GI50 (NCI-H460 lung) of 20.7 µM. The TGI (NCI-H460 lung) was 42.5 µM, the GI50 (CAKI-1 renal) was 27.3 µM and the TGI (CAKI-1 renal) was greater than 100 µM. For the same molecule, the GI50 (UACC-257 melanoma) was 26.1 µM, the TGI (UACC-257 melanoma) was 84.1 µM and the GI50 (DMS 273 small cell lung) was 18.1 µM. It also gave a TGI (DMS 273 small cell lung) of 37.1 µM, a GI50 (LXFL 529 NSCLC) of 37.4 µM and a TGI (LXFL 529 NSCLC) greater than 100 µM. The GI50 (KM12 colon) was 27.8 µM, the TGI (KM12 colon) was 69.1 µM and the GI50 (UO-31 renal) was 44.4 µM. For the same molecule, the TGI (UO-31 renal) was greater than 100 µM, the GI50 (EKVX NSCLC) was 37.6 µM and the TGI (EKVX NSCLC) was greater than 100 µM. For the same molecule, the GI50 (OVCAR-8 ovarian) was 19.9 µM, the TGI (OVCAR-8 ovarian) was 40.4 µM and the GI50 (DMS 114 small cell lung) was 29 µM. It also gave a TGI (DMS 114 small cell lung) of 75.5 µM, a GI50 (SF-268 CNS) of 36 µM and a TGI (SF-268 CNS) greater than 100 µM. For the same molecule, the GI50 (NCI-H322M lung) was 20.6 µM, the TGI (NCI-H322M lung) was 47.9 µM and the GI50 (K-562 leukemia) was 36.1 µM. It also gave a TGI (K-562 leukemia) greater than 100 µM, a GI50 (UACC-62 melanoma) of 32.6 µM and a TGI (UACC-62 melanoma) greater than 100 µM. For the same molecule, the GI50 (SR leukemia) was 28.4 µM, the TGI (SR leukemia) was 71.8 µM and the GI50 (SK-MEL-2 melanoma) was 46.4 µM. It also gave a TGI (SK-MEL-2 melanoma) greater than 100 µM, a GI50 (OVCAR-4 ovarian) of 17.9 µM and a TGI (OVCAR-4 ovarian) of 33.5 µM. For the same molecule, the GI50 (LOX IMVI melanoma) was 28.1 µM, the TGI (LOX IMVI melanoma) was 68.4 µM and the GI50 (U251 CNS) was 11.9 µM. The TGI (U251 CNS) was 25.8 µM, the GI50 (SNB-19 CNS) was 20.2 µM and the TGI (SNB-19 CNS) was 39.8 µM. For the same molecule, the GI50 (NCI-H226 lung) was 23.5 µM, the TGI (NCI-H226 lung) was 64.8 µM and the GI50 (A549 NSCLC) was 18.7 µM. For the same molecule, the TGI (A549 NSCLC) was 36.5 µM, the GI50 (COLO 205 colon) was 23.2 µM and the TGI (COLO 205 colon) was 65 µM.

— PubChem BioAssay (NCI)
